## Ab-14 heavy chain CDR variants: yeast mating affinities

Binding partner: SARS-CoV-2 spike HR2 peptide, sequence PDVDLGDISGINAS.

Parent: Ab-14, a human scFv built as VH, three GGGGS repeats, VL. Only the CDRs of the heavy chain vary.
VH: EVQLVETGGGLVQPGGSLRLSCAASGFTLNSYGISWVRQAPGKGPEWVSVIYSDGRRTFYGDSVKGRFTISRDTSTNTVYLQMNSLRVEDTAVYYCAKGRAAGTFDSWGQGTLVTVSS
VL: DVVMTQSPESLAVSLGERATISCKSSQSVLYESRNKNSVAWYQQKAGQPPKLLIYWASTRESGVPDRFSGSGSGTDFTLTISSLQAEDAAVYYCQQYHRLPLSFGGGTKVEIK

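Phage display of a naive human antibody library on the peptide gave the parent. In library AAYL49, one, two or three CDR residues were substituted; doubles and triples were drawn at random. The assay is AlphaSeq: two haploid yeast populations carry antibody and antigen on their surface. The frequency of each diploid, read from paired DNA barcodes, reflects how well the two displayed proteins bind. A regression on co-assayed BCL2-family reference pairs converts the normalised counts of each replicate to an apparent Kd. Mating was done three times.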

Substitutions are numbered in sequence along the VH above, starting at 1 (not Kabat). Scale: log10 of Kd in nM, estimated from mating counts; low values are strong binders. Replicates are averaged; those with no signal do not enter the mean. "nd" marks a missing value. The strain was present, yet no cells mated with the target were sequenced in that replicate, which points to weak or no binding. Parent in this assay: reference entry 0.65, copy in this library 4.11 (one replicate of three). Empty control strains, which show no peptide, gave a signal in 15% of pairings with library AAYL49; the median was 4.06 and 95% of these signals were weaker than 2.83. No background was subtracted. Also given: how often the same scFv was detected with the empty control strains, with their mean in brackets.

changes,"replicates, log10 nM","log10 Kd (nM), mean",empty controls
F27Y+Y52E+R100I,4.74 / nd / nd,4.74,2/9 (4.31)
S35K+S63P+V64C,nd / nd / 4.85,4.85,0/9
G61R+D62T,nd / 5.05 / 3.13,4.09,2/9 (3.80)
Y60D+G61C+S63M,nd / nd / nd,nd,2/9 (3.20)
G33S+F59T+T104V,nd / nd / nd,nd,1/9 (2.68)
Y32V+G55F+A101K,nd / nd / nd,nd,0/9
Y32A+A102V+T104S,nd / 3.22 / nd,3.22,0/9
Y52D+G55W+R57Y,5.87 / 4.93 / 5.24,5.34,5/9 (5.04)
G55E+R56C+D62W,nd / nd / nd,nd,0/9
G55M+T58E+Y60S,nd / nd / nd,nd,0/9
I51G+G55H+D62H,4.86 / 4.36 / 3.84,4.35,7/9 (4.81)
L29D+D54V+D106S,nd / nd / nd,nd,1/9 (3.57)
Y32P+Y52W+A101F,nd / nd / nd,nd,2/9 (4.75)
F27M+S35V+R57L,nd / nd / nd,nd,0/9
Y32R+V50I+G103Q,nd / nd / nd,nd,1/9 (3.09)
L29R+I34Q+S35M,5.02 / 5.10 / nd,5.06,4/9 (4.09)
G33D+I34K+D106F,nd / nd / 5.31,5.31,3/9 (2.94)
S53E+F59N+T104R,nd / 4.57 / nd,4.57,2/9 (4.24)
N30A+R56I+T58E,1.19 / 1.24 / 1.29,1.24,3/9 (4.22)
L29K+R56M,5.40 / 4.16 / 4.40,4.66,7/9 (4.44)
A102S+F105Q,1.22 / 1.42 / 1.57,1.40,1/9 (4.51)
V64F+T104C,1.23 / 1.44 / 1.78,1.48,0/9
S53D+S63F+V64D,5.65 / nd / nd,5.65,2/9 (4.34)
A101E+T104Q+S107F,nd / nd / nd,nd,0/9
L29M+I34P+G99H,nd / 3.87 / nd,3.87,3/9 (4.61)
Y32L+I34L+Y60V,5.46 / nd / 5.13,5.29,4/9 (4.22)
D54F+F59R+S107C,4.10 / nd / 4.79,4.45,3/9 (3.97)
G33A+T58L+T104R,4.47 / 3.66 / 4.26,4.13,5/9 (4.43)
V50I+Y52W+S63W,nd / nd / nd,nd,0/9
D54M+S63C+K65R,3.32 / nd / 5.65,4.49,2/9 (3.43)
G55D+S63D+S107Y,nd / 2.95 / nd,2.95,4/9 (3.56)
Y60K+R100H+A102N,nd / nd / nd,nd,0/9
F27L+R56A+G99M,nd / nd / nd,nd,1/9 (3.41)
D54W+D106I,nd / nd / nd,nd,1/9 (2.81)
G26A+V50M,nd / nd / nd,nd,1/9 (3.62)
S53T+F59T+D106G,nd / nd / nd,nd,0/9
K65C+D106P,3.94 / nd / nd,3.94,0/9
S31M+Y52W+G99Q,nd / nd / nd,nd,0/9
G61R+V64I+G99L,nd / nd / 2.11,2.11,1/9 (2.75)
T58G+V64M+G99A,nd / nd / nd,nd,0/9
F27W+V50N+G55I,3.32 / nd / nd,3.32,0/9
F27E+G103N+T104I,nd / nd / 2.38,2.38,2/9 (1.99)
R57D+V64W+A101T,nd / 4.27 / nd,4.27,1/9 (3.73)
G55S+D62E+T104P,nd / nd / nd,nd,4/9 (4.30)

The opening 3 entries, copied out:

{"changes": "F27Y+Y52E+R100I", "replicates, log10 nM": "4.74 / nd / nd", "log10 Kd (nM), mean": "4.74", "empty controls": "2/9 (4.31)"}
{"changes": "S35K+S63P+V64C", "replicates, log10 nM": "nd / nd / 4.85", "log10 Kd (nM), mean": "4.85", "empty controls": "0/9"}
{"changes": "G61R+D62T", "replicates, log10 nM": "nd / 5.05 / 3.13", "log10 Kd (nM), mean": "4.09", "empty controls": "2/9 (3.80)"}

Values reported by Engelhart et al. 2022, doi:10.1038/s41597-022-01779-4 (FLAb copy).